These results are taken from PubChem BioAssay AID1224903 (Bradner/Qi Labs at DFCI, 2016).

Protein sequences, listed by entry. Tags and fused reporters are not part of them.
UniProt O95931, whole entry: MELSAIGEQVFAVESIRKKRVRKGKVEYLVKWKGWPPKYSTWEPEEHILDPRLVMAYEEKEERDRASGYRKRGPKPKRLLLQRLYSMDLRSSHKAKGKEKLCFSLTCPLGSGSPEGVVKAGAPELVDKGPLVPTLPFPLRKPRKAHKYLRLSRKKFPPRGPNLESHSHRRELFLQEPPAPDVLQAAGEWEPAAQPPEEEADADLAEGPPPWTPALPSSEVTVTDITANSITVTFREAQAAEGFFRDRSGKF

The entries are a selection whose mix differs from that of the whole data set. Activity calls are given as the source filed them. No stated cut-off is given here; in the data, active means normalised signal below about 0.5; inactive means the rest, inconclusive results apart.

In the experiment the target is Chromobox protein homolog 7 (Homo sapiens) (UniProt O95931). As to the kind of experiment: CBX7 chromodomain binding inhibitors, primary screen, biochemical, AlphaScreen (AID 1224903). The following applies: AlphaScreen His6-CBX7 / biotin-H3K27me3 peptide binding; active compounds read low. A general note: Bead proximity is the source of the signal in Alpha formats.
Turning to `C1CN(c2nonc2-[n+]2nc3nonc3[n-]2)CCO1`, the normalised signal (fraction of DMSO) was inactive: 0.875. Turning to `O=C(OCCN1CCN(CCOCc2ccccc2)CC1)C(O)(c1ccccc1)c1ccccc1`, the normalised signal (fraction of DMSO) is inactive: 1.39.

For the compound `C=CCN1CCN(CCOC(=O)C(O)(c2ccccc2)c2ccccc2)CC1`, the normalised signal (fraction of DMSO) is inactive: 1.38.
